Test results from patent US9694016B2 (Novartis AG, priority 2013, dated 2017).
pIC50: −log10 of the molar value. Like-named read-outs stand apart in the source and are kept apart here.

The chains behind the UniProt entries cited, without tags or fusion partners.
UniProt P04049, whole entry Y340E/Y341E: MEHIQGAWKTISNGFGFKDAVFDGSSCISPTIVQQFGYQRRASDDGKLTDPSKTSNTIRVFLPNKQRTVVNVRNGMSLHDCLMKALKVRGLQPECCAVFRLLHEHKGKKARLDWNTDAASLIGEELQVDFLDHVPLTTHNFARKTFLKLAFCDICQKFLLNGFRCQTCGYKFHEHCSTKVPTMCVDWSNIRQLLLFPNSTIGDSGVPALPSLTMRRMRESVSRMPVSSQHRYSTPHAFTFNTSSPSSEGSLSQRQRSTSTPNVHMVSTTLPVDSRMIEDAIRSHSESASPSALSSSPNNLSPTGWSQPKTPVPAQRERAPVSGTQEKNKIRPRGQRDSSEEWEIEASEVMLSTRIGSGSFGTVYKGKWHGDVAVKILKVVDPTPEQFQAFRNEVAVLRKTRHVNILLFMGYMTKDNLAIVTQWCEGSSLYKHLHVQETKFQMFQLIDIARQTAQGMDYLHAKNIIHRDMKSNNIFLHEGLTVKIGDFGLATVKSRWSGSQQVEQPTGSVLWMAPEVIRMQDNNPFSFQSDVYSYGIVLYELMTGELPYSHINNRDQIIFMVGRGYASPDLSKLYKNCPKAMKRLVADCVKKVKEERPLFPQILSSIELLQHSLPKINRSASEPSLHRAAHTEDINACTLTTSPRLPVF

Target: C-Raf FL (full-length C-Raf protein, Y340E and Y341E activating mutations) (Homo sapiens (Human), UniProt P04049, Y340E/Y341E)
Assay type: biochemical
Conditions: AlphaScreen, 60 min pre-incubation, read-out: c-Raf FL IC-50
[1] = reaction 1 hour at room temperature

Q: With `Cc1ccc(NC(=O)c2cccc(C(C)(C)C#N)c2)cc1-c1cc(N2CCOCC2)c2nccn2n1` [Example 846, 3-(2-cyanopropan-2-yl)-N-(4-methyl-3-(8-morpholinoimidazo[1,2-b]pyridazin-6-yl)phenyl)benzamide] as the compound, how does the pIC50 (1 hour reaction) read?
A: 9.70

Q: `Cc1ccc(NC(=O)c2cccc(C(F)F)c2)cc1-c1cc(N2CCOCC2)c2nccn2n1` [Example 847, 3-(difluoromethyl)-N-(4-methyl-3-(8-morpholinoimidazo[1,2-b]pyridazin-6-yl)phenyl)benzamide] was tested. Which pIC50 (1 hour reaction) did it give?
A: 10.40

Q: With `Cc1ccc(NC(=O)c2ccnc(C(F)(F)F)c2)cc1-c1cc(N2CCOCC2)c2nccn2c1` [Example 849, N-(4-methyl-3-(8-morpholinoimidazo[1,2-a]pyridin-6-yl)phenyl)-2-(trifluoromethyl)isonicotinamide] as the compound, how does the pIC50 [1] read?
A: 9.05

Q: With `Cc1ccc(NC(=O)c2ccnc(C(F)F)c2)cc1-c1cc(N2CCOCC2)c2nccn2c1` [Example 850, 2-(difluoromethyl)-N-(4-methyl-3-(8-morpholinoimidazo[1,2-a]pyridin-6-yl)phenyl)isonicotinamide] as the compound, how does the pIC50 [1] read?
A: 9.70

Q: How did the pIC50 [1] turn out when `Cc1ccc(NC(=O)c2ccnc(S(C)(=O)=O)c2)cc1-c1cc(N2CCOCC2)c2nccn2c1` [Example 851] was run?
A: 9.52

Q: With `Cc1ccc(NC(=O)c2cnnc(C(F)(F)F)c2)cc1-c1cc(N2CCOCC2)c2nccn2c1` [Example 852] as the compound, how does the pIC50 [1] read?
A: 9.70

Q: `Cc1ccc(NC(=O)c2ccnc(C(C)(C)C#N)c2)cc1-c1nc2c(c(N3CCOCC3)n1)S(=O)(=O)CC2` [Example 855, 2-(2-cyanopropan-2-yl)-N-(4-methyl-3-(4-morpholino-5,5-dioxido-6,7-dihydrothieno[3,2-d]pyrimidin-2-yl)phenyl)isonicotinamide] was tested. Which pIC50 [1] did it give?
A: 9.40

Q: With `Cc1ccc(NC(=O)c2ccnc(C(F)F)c2)cc1-c1nc2c(c(N3CCOCC3)n1)S(=O)(=O)CC2` [Example 856, 2-(difluoromethyl)-N-(4-methyl-3-(4-morpholino-5,5-dioxido-6,7-dihydrothieno[3,2-d]pyrimidin-2-yl)phenyl)isonicotinamide] as the compound, how does the pIC50 [1] read?
A: 9.00

Q: How did the pIC50 [1] turn out when `Cc1ccc(NC(=O)c2cccc(C(F)(F)F)c2)cc1-c1nc2c(c(N3CCOCC3)n1)S(=O)(=O)CC2` [Example 857, N-(4-methyl-3-(4-morpholino-5,5-dioxido-6,7-dihydrothieno[3,2-d]pyrimidin-2-yl)phenyl)-3-(trifluoromethyl)benzamide] was run?
A: 10.10

Q: How did the pIC50 [1] turn out when `Cc1ccc(NC(=O)c2ccnc(C(C)(C)C#N)c2)cc1-c1cn2ccnc2c(N2CCOCC2)n1` [Example 860, 2-(2-cyanopropan-2-yl)-N-(4-methyl-3-(8-morpholinoimidazo[1,2-a]pyrazin-6-yl)phenyl)isonicotinamide] was run?
A: 9.15

Q: How did the pIC50 [1] turn out when `Cc1ccc(NC(=O)c2ccnc(C(C)(C)C#N)c2)cc1-c1nc(N2CCOCC2)c2c(cnn2C)n1` [Example 861, 2-(2-cyanopropan-2-yl)-N-(4-methyl-3-(1-methyl-7-morpholino-1H-pyrazolo[4,3-d]pyrimidin-5-yl)phenyl)isonicotinamide] was run?
A: 9.22

Q: How did the pIC50 [1] turn out when `Cc1ccc(NC(=O)c2ccnc(C(C)(C)C#N)c2)cc1-c1nc(N2CCOCC2)c2sccc2n1` [Example 862, 2-(2-cyanopropan-2-yl)-N-(4-methyl-3-(4-morpholinothieno[3,2-d]pyrimidin-2-yl)phenyl)isonicotinamide] was run?
A: 9.52

Q: `Cc1ccc(NC(=O)c2ccnc(C(C)(C)C#N)c2)cc1-c1nc(N2CCOCC2)c2[nH]ccc2n1` [Example 863, 2-(2-cyanopropan-2-yl)-N-(4-methyl-3-(4-morpholino-5H-pyrrolo[3,2-d]pyrimidin-2-yl)phenyl)isonicotinamide] was tested. Which pIC50 [1] did it give?
A: 9.22

Q: How did the pIC50 [1] turn out when `Cc1ccc(NC(=O)c2ccnc(C(C)(C)C#N)c2)cc1-c1nc2c(c(N3CCOCC3)n1)CN(C(=O)OC(C)(C)C)CC2` [Example 864, tert-butyl 2-(5-(2-(2-cyanopropan-2-yl)isonicotinamido)-2-methylphenyl)-4-morpholino-7,8-dihydropyrido[4,3-d]pyrimidine-6(5H)-carboxylate] was run?
A: 7.62

Q: `Cc1ccc(NC(=O)c2ccnc(C(C)(C)C#N)c2)cc1-c1nc2c(c(N3CCOCC3)n1)CCNC2` [Example 865, 2-(2-cyanopropan-2-yl)-N-(4-methyl-3-(4-morpholino-5,6,7,8-tetrahydropyrido[3,4-d]pyrimidin-2-yl)phenyl)isonicotinamide] was tested. Which pIC50 [1] did it give?
A: 5.10

Q: How did the pIC50 [1] turn out when `Cc1ccc(NC(=O)c2ccnc(C(C)(C)C#N)c2)cc1-c1nc2c(c(N3CCOCC3)n1)CNC2` [Example 866, 2-(2-cyanopropan-2-yl)-N-(4-methyl-3-(4-morpholino-6,7-dihydro-5H-pyrrolo[3,4-d]pyrimidin-2-yl)phenyl)isonicotinamide] was run?
A: 8.70

Q: How did the pIC50 [1] turn out when `Cc1ncc(NC(=O)c2ccnc(C(C)C)c2)cc1-c1cc(N2CCOCC2)c2nccn2n1` [Example 869, 2-isopropyl-N-(6-methyl-5-(8-morpholinoimidazo[1,2-b]pyridazin-6-yl)pyridin-3-yl)isonicotinamide] was run?
A: 9.70

Q: With `Cc1ncc(NC(=O)c2ccnc(C(C)(C)O)c2)cc1-c1cc(N2CCOCC2)c2nccn2n1` [Example 870, 2-(2-hydroxypropan-2-yl)-N-(6-methyl-5-(8-morpholinoimidazo[1,2-b]pyridazin-6-yl)pyridin-3-yl)isonicotinamide] as the compound, how does the pIC50 [1] read?
A: 8.82

Q: With `Cc1ncc(NC(=O)c2ccnc(C(C)(F)F)c2)cc1-c1cc(N2CCOCC2)c2nccn2n1` [Example 871, 2-(1,1-difluoroethyl)-N-(6-methyl-5-(8-morpholinoimidazo[1,2-b]pyridazin-6-yl)pyridin-3-yl)isonicotinamide] as the compound, how does the pIC50 [1] read?
A: 10.00

Q: `Cc1ncc(NC(=O)c2ccc(C(O)CO)c(C(F)(F)F)c2)cc1-c1cc(N2CCOCC2)c2nccn2n1` (stereo not shown) [Example 873, 4-(1,2-dihydroxyethyl)-N-(6-methyl-5-(8-morpholinoimidazo[1,2-b]pyridazin-6-yl)pyridin-3-yl)-3-(trifluoromethyl)benzamide] was tested. Which pIC50 [1] did it give?
A: 9.30

Q: How did the pIC50 [1] turn out when `Cc1ncc(NC(=O)c2ccc(C#N)c(C(F)(F)F)c2)cc1-c1cc(N2CCOCC2)c2nccn2c1` [Example 877, 4-cyano-N-(6-methyl-5-(8-morpholinoimidazo[1,2-a]pyridin-6-yl)pyridin-3-yl)-3-(trifluoromethyl)benzamide] was run?
A: 8.85

Q: With `Cc1ncc(NC(=O)c2ccnc(C(C)(C)O)c2)cc1-c1cc(N2CCOCC2)c2nccn2c1` [Example 878, 2-(2-hydroxypropan-2-yl)-N-(6-methyl-5-(8-morpholinoimidazo[1,2-a]pyridin-6-yl)pyridin-3-yl)isonicotinamide] as the compound, how does the pIC50 [1] read?
A: 7.71

Q: `Cc1ncc(NC(=O)c2ccnc(C(C)(F)F)c2)cc1-c1cc(N2CCOCC2)c2nccn2c1` [Example 879, 2-(1,1-difluoroethyl)-N-(6-methyl-5-(8-morpholinoimidazo[1,2-a]pyridin-6-yl)pyridin-3-yl)isonicotinamide] was tested. Which pIC50 [1] did it give?
A: 8.92

Q: How did the pIC50 [1] turn out when `Cc1ncc(NC(=O)c2cccc(C(F)F)c2)cc1-c1cc(N2CCOCC2)c2nccn2c1` [Example 880, 3-(difluoromethyl)-N-(6-methyl-5-(8-morpholinoimidazo[1,2-a]pyridin-6-yl)pyridin-3-yl)benzamide] was run?
A: 9.22

Q: How did the pIC50 [1] turn out when `Cc1ncc(NC(=O)c2ccnc(C(C)(C)C#N)c2)cc1-c1cc(N2CCOCC2)c2nccn2c1` [Example 881, 2-(2-cyanopropan-2-yl)-N-(6-methyl-5-(8-morpholinoimidazo[1,2-a]pyridin-6-yl)pyridin-3-yl)isonicotinamide] was run?
A: 8.24

Q: With `Cc1ncc(NC(=O)c2ccnc(C(C)C)c2)cc1-c1cc(N2CCOCC2)c2nccn2c1` [Example 882, 2-isopropyl-N-(6-methyl-5-(8-morpholinoimidazo[1,2-a]pyridin-6-yl)pyridin-3-yl)isonicotinamide] as the compound, how does the pIC50 [1] read?
A: 8.82

Q: How did the pIC50 [1] turn out when `Cc1ncc(NC(=O)c2cccc(C(F)(F)F)c2)cc1-c1nc2c(c(N3CCOCC3)n1)CS(=O)(=O)C2` [Example 886, N-(6-methyl-5-(4-morpholino-6,6-dioxido-5,7-dihydrothieno[3,4-d]pyrimidin-2-yl)pyridin-3-yl)-3-(trifluoromethyl)benzamide] was run?
A: 9.22

Q: `Cc1c(-c2nc3c(c(N4CCOCC4)n2)CS(=O)(=O)C3)cc(NC(=O)c2cccc(C(F)(F)F)c2)c[n+]1[O-]` [Example 887, 2-methyl-3-(4-morpholino-6,6-dioxido-5,7-dihydrothieno[3,4-d]pyrimidin-2-yl)-5-(3-(trifluoromethyl)benzamido)pyridine 1-oxide] was tested. Which pIC50 [1] did it give?
A: 7.00

Q: How did the pIC50 [1] turn out when `Cc1ccc(C(=O)Nc2cccc(C(F)(F)F)c2)cc1-c1nc2c(c(N3CCOCC3)n1)CNC2` [Example 889, 4-methyl-3-(4-morpholino-6,7-dihydro-5H-pyrrolo[3,4-d]pyrimidin-2-yl)-N-(3-(trifluoromethyl)phenyl)benzamide] was run?
A: 9.22

Q: `Cc1ccc(NC(=O)c2cnnc(C3(C#N)CC3)c2)cc1-c1cc(N2CCOCC2)n(C)c(=O)c1` [Example 899, 6-(1-cyanocyclopropyl)-N-(4-methyl-3-(1-methyl-6-morpholino-2-oxo-1,2-dihydropyridin-4-yl)phenyl)pyridazine-4-carboxamide] was tested. Which pIC50 [1] did it give?
A: 9.32

Q: With `Cc1ccc(NC(=O)c2cc(C(C)(C)C#N)ccn2)cc1-c1cc(N2CCOCC2)n(C)c(=O)c1` [Example 900, 4-(2-cyanopropan-2-yl)-N-(4-methyl-3-(1-methyl-6-morpholino-2-oxo-1,2-dihydropyridin-4-yl)phenyl)picolinamide] as the compound, how does the pIC50 [1] read?
A: 9.11

Q: With `Cc1ccc(NC(=O)c2cncc(C(F)(F)F)c2)cc1-c1cc(N2CCOCC2)n(C)c(=O)c1` [Example 901, N-(4-methyl-3-(1-methyl-6-morpholino-2-oxo-1,2-dihydropyridin-4-yl)phenyl)-5-(trifluoromethyl)nicotinamide] as the compound, how does the pIC50 [1] read?
A: 9.68

Q: How did the pIC50 [1] turn out when `Cc1ccc(NC(=O)c2cnnc(C3(C#N)CC3)c2)cc1-c1cc(N2CCOCC2)c(=O)n(C)c1` [Example 902, 6-(1-cyanocyclopropyl)-N-(4-methyl-3-(1-methyl-5-morpholino-6-oxo-1,6-dihydropyridin-3-yl)phenyl)pyridazine-4-carboxamide] was run?
A: 9.15

Q: `Cc1ccc(NC(=O)c2cc(C(C)(C)C#N)ccn2)cc1-c1cc(N2CCOCC2)c(=O)n(C)c1` [Example 903, 4-(2-cyanopropan-2-yl)-N-(4-methyl-3-(1-methyl-5-morpholino-6-oxo-1,6-dihydropyridin-3-yl)phenyl)picolinamide] was tested. Which pIC50 [1] did it give?
A: 9.09
